Laboratory results: patent publication US20260384424A1, “HETEROCYCLIC COMPOUND” (published 2026)

Chains of the proteins cited; added tags and fusions are not shown. Residues count along the entry.
UniProt Q9UM73, 1058-1620 limits assumed: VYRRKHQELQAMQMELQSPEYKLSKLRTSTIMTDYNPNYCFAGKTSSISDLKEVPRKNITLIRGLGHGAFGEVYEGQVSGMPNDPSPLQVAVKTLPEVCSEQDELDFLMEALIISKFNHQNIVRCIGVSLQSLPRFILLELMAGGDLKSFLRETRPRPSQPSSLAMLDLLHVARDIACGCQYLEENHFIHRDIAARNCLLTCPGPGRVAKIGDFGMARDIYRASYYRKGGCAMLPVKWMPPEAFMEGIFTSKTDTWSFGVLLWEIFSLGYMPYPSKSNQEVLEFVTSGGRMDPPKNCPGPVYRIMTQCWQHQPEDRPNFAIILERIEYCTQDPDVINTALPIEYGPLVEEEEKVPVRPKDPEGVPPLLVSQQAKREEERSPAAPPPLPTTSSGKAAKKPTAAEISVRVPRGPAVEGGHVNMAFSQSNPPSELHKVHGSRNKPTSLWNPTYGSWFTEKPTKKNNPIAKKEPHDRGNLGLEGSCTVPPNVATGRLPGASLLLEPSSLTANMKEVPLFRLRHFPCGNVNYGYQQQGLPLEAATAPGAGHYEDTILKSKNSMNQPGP
UniProt Q05397, 376-1052 limits assumed: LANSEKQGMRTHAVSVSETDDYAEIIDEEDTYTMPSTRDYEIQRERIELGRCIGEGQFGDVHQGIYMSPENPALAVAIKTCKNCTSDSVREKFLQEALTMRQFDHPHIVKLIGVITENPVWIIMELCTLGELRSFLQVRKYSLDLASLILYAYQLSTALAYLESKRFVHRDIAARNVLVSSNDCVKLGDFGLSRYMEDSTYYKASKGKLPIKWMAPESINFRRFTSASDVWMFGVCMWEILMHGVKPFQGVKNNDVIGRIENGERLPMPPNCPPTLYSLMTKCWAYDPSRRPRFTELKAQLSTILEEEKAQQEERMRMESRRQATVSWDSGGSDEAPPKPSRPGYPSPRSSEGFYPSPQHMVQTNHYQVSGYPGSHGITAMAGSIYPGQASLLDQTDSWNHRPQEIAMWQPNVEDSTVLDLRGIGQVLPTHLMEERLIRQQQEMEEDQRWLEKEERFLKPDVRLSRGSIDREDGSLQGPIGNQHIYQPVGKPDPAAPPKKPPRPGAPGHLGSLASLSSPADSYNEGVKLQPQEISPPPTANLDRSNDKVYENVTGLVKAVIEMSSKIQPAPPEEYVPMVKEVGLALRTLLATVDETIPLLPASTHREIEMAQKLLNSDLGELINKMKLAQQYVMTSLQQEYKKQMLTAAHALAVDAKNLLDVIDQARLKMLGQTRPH
UniProt O75116, whole entry: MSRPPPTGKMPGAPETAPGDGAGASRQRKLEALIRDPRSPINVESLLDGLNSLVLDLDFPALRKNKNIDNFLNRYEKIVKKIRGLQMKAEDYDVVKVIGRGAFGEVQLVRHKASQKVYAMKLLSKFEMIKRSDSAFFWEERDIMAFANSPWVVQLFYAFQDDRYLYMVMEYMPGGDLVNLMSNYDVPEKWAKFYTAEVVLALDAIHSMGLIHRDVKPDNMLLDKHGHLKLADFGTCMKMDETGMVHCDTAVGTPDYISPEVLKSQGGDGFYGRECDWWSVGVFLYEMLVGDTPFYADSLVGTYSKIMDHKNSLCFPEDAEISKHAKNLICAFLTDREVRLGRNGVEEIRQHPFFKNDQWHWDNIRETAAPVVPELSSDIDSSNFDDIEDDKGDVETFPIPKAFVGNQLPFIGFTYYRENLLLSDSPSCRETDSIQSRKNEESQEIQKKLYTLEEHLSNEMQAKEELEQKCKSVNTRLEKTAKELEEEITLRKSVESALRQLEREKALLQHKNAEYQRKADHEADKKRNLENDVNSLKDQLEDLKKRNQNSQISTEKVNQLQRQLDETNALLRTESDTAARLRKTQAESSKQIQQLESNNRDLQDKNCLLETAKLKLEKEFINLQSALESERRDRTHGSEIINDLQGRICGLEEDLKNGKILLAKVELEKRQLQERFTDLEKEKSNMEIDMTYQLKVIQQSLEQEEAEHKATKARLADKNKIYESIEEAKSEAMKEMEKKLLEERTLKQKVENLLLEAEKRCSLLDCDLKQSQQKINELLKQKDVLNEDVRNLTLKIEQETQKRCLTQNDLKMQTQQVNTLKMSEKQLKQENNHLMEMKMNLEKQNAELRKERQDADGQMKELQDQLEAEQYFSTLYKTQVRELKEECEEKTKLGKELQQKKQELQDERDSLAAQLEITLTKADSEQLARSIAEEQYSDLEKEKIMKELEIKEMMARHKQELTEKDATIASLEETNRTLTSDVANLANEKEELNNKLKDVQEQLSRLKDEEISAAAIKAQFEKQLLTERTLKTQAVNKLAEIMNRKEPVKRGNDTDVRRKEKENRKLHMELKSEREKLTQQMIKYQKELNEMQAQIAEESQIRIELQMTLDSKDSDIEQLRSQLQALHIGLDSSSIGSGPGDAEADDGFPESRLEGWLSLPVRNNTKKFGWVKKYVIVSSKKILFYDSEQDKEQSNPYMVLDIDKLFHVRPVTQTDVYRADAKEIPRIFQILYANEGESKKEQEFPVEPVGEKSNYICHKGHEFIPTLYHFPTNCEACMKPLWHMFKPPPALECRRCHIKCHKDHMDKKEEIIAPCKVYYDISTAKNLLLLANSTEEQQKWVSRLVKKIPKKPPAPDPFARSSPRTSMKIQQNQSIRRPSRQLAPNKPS
UniProt O75116, 1-553 limits assumed: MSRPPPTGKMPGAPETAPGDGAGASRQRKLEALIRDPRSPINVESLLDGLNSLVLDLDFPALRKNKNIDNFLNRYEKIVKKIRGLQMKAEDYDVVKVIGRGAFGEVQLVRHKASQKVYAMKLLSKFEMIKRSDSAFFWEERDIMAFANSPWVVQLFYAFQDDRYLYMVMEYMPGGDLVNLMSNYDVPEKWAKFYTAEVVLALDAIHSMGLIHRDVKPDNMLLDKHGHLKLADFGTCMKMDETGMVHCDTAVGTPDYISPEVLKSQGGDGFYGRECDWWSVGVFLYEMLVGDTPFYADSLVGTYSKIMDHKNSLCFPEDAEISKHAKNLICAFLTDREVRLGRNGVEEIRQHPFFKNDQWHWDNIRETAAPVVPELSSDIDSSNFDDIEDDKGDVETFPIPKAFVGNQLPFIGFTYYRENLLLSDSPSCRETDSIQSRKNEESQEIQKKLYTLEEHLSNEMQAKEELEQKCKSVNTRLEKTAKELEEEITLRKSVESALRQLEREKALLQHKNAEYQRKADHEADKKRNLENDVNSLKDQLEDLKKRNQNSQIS

How the values were obtained:
human ALK kinase = human ALK kinase (Homo sapiens, UniProt Q9UM73); experiment: ALK kinase inhibitory activity, mobility shift assay (MSA); conditions: at 10 nM
Method: The ALK kinase inhibitory activity was measured using a mobility shift assay (MSA) provided by Carna Biosciences, Inc.
The test compound was dissolved in DMSO to prepare a 1 μM solution. The solution was further diluted 25 times with an assay buffer (20 mmol/L HEPES, 0.01% Triton (registered trademark) X-100, 1 mmol/L DTT, pH 7.5) to obtain a test compound solution.
The human ALK kinase was expressed by fusing the cytoplasmic domain (1058 to 1620 amino acids of Accession No. BAG 10812.1) with GST at the N-terminus using the baculovirus expression system. The GST-ALK was purified by glutathione sepharose chromatography. A 4-fold concentration substrate (Srctide, 1000 nmol/L)/ATP (50 μmol/L)/metal solution (Mg, 5 mmol/L) was prepared with kit buffer (20 mmol/L HEPES, 0.01% Triton (registered trademark) X-100, 5 mmol/L DTT, pH 7.5). A 2-fold concentration kinase solution was prepared with assay buffer.
In the same manner as described in Test Example 1, tests and evaluation of inhibitory activity and data analysis were performed.

human FAK kinase = human FAK kinase (Homo sapiens, UniProt Q05397); experiment: FAK kinase inhibitory activity, mobility shift assay (MSA); conditions: at 30 nM; reaction time 5 hours
Method: The FAK kinase inhibitory activity was measured using a mobility shift assay (MSA) provided by Carna Biosciences, Inc.
The test compound was dissolved in DMSO to prepare a 3 μM solution. The solution was further diluted 25 times with an assay buffer (20 mmol/L HEPES, 0.01% Triton (registered trademark) X-100, 1 mmol/L DTT, pH 7.5) to obtain a test compound solution.
Incomplete human FAK kinase was expressed by fusing 376 to 1052 amino acids of Accession No. NP_722560.1 with GST at the N-terminus using the baculovirus expression system. The GST-FAK was purified by glutathione sepharose chromatography. A 4-fold concentration substrate (Blk/Lyntide, 1000 nmol/L)/ATP (25 μmol/L)/metal solution (Mg, 5 mmol/L) was prepared with kit buffer (20 mmol/L HEPES, 0.01% Triton (registered trademark) X-100, 5 mmol/L DTT, pH 7.5). A 2-fold concentration kinase solution was prepared with assay buffer.
In the same manner as described in Test Example 1, tests and evaluation of inhibitory activity and data analysis were performed. The reaction time was set to 5 hours.

ROCK2 protein [1] = biological target: T1, ROCK2 protein (Homo sapiens, UniProt O75116); experiment: Degradation inducing activity of ROCK2 protein in HUVEC cells, Western Blotting; conditions: 24 hours
ROCK2 protein [2] = biological target: T1, ROCK2 protein; experiment: ROCK2 kinase inhibitory activity, mobility shift assay (MSA)
Method: The ROCK2 kinase inhibitory activity was measured using a mobility shift assay (MSA) provided by Carna Biosciences, Inc.
The test compound was dissolved in DMSO and further diluted with DMSO to prepare a solution having a concentration 100 times the evaluation concentration. The solution was further diluted 25 times with an assay buffer (20 mmol/L HEPES, 0.01% Triton (registered trademark) X-100, 1 mmol/L DTT, pH 7.5) to obtain a test compound solution.
The human ROCK2 kinase was expressed by fusing the catalytic domain (1 to 553 amino acids of Accession No. NP_004841.2) with GST at the N-terminus using the baculovirus expression system. GST-ROCK2 was purified by glutathione sepharose chromatography.
A 4-fold concentration substrate (LIMKtide, 1000 nmol/L)/ATP (5 μmol/L)/metal solution (Mg, 5 mmol/L) was prepared with kit buffer (20 mmol/L HEPES, 0.01% Triton (registered trademark) X-100, 5 mmol/L DTT, pH 7.5). A 2-fold concentration kinase solution was prepared with assay buffer. 5 μL of a 4-fold concentration test compound solution, 5 μL of a 4-fold concentration substrate/ATP/metal solution, and 10 μL of a 2-fold concentration kinase solution were mixed in a well of a polypropylene 384 well plate, and the mixture was reacted at room temperature for 1 hour. 70 μL of termination buffer (127 mmol/L HEPES, 0.01% Triton (registered trademark) X-100, 26.7 mmol/L EDTA-2Na, 1% DMSO, pH 7.5) was added to stop the reaction. The substrate peptide and the phosphorylated peptide in the reaction solution were separated and quantified using a LabChip (trademark) system (Perkin Elmer).
The kinase reaction was evaluated by the product ratio (P/(P+S)) calculated from the substrate peptide peak height (S) and the phosphorylated peptide peak height (P).
The average signal of the control well including all the reaction components was set to 0% suppression, the average signal of the background well (no enzyme added) was set to 100% suppression, and the inhibition rate was calculated from the average signal of the test compound test well.
The ROCK2 inhibition rate and the evaluation concentration of the test compound are shown in Table 4-1, and the IC50 value of the inhibitory activity is shown in Table 4-2. The ROCK2 inhibition rate in Table 4-1 is represented by A Z 75%, 75%>B≥50%, 50%>C≥25%, and D<25%, and the IC50 value in Table 4-2 is represented by A<0.03 μM, 0.03 μM≤B<0.3 μM, 0.3 μM≤C<3 μM, and 3 μM≤D<10 μM.

[3] = evaluation concentration 0.03 μm

Question: For “2-(4-(4-((5-Chloro-4-((2-(isopropylsulfonyl)phenyl)amino) pyrimidin-2-yl)amino)-5-isopropoxy-2-methylphenyl)piperidin-1-yl)-N-(14-(2-((1-(2-((2R,5R)-2-(methoxymethyl)-5-methylpiperazin-1-yl)acetyl)-3,3-dimethyl-2,3-dihydro-1H-pyrrolo[3,2-b]pyridin-6-yl)methyl)phenoxy)-3,6,9, 12-tetraoxatetradecyl)acetamide”, which “ALK kinase inhibition rate” value (human ALK kinase) is on record?
Answer: A (A Z 75%)

Question: For `Cc1cc(Nc2ncc(Cl)c(Nc3ccccc3S(=O)(=O)C(C)C)n2)c(OC(C)C)cc1C1CCN(CC(=O)NCCOCCN(C)C[C@H]2CN[C@H](C)CN2CC(=O)N2CC(C)(C)c3ncc(Cc4ccc(F)cc4)cc32)CC1`, which “ALK kinase inhibition rate” value (human ALK kinase) is on record?
Answer: B (75%>B≥50%)

Question: “2-(2-((((2R,5R)-1-(2-(6-(4-Fluorobenzyl)-3,3-dimethyl-2,3-dihydro-1H-pyrrolo[3,2-b]pyridin-1-yl)-2-oxoethyl)-5-methylpiperazin-2-yl)methyl)(methyl)amino)ethoxy)-N-(4-((4-((3-(methylsulfonyl)benzyl)amino)-5-(trifluoromethyl)pyrimidin-2-yl)amino)phenyl)acetamide” was tested. Which “FAK kinase inhibition rate” value (human FAK kinase) did it give?
Answer: A (A≥75%)

Question: For `COC[C@H]1CN[C@H](C)CN1CC(=O)N1CC(C)(C)c2nc(CN3CCN(CCOCC(=O)Nc4ccc(Nc5ncc(C(F)(F)F)c(NCc6cccc(S(C)(=O)=O)c6)n5)cc4)CC3)c(Cc3ccc(F)cc3)cc21`, which “FAK kinase inhibition rate” value (human FAK kinase) is on record?
Answer: A (A≥75%)

Question: Which “FAK kinase inhibition rate” value (human FAK kinase) does the source give for `COC[C@H]1CN[C@H](C)CN1CC(=O)N1CC(C)(C)c2nc(CN3CCN(CCOCCOCC(=O)Nc4ccc(Nc5ncc(C(F)(F)F)c(NCc6cccc(S(C)(=O)=O)c6)n5)cc4)CC3)c(Cc3ccc(F)cc3)cc21` here?
Answer: B (75%>B≥50%)

Question: Which “FAK kinase inhibition rate” value (human FAK kinase) does the source give for `COC[C@H]1CN[C@H](C)CN1CC(=O)N1CC(C)(C)c2ncc(Cc3cccc(OCCN4CCN(CCOCCOCCOCCOCC(=O)Nc5ccc(Nc6ncc(C(F)(F)F)c(NCc7cccc(S(C)(=O)=O)c7)n6)cc5)CC4)c3)cc21` here?
Answer: B (75%>B≥50%)

Question: For `COC[C@H]1CN[C@H](C)CN1CC(=O)N1CC(C)(C)c2ncc(Cc3cccc(OCCOCCOCCOCCOCCOCCOCCN[C@H](C)c4ccc(C(=O)Nc5ccncc5)cc4)c3)cc21`, which “ROCK2 protein degradation rate” value (ROCK2 protein [1]; at 1 μm) is on record?
Answer: B/B (75%>B≥50%)

Question: What about the “ROCK2 protein degradation rate” value (ROCK2 protein [1]; at 10 μm) of the same molecule?
Answer: B/B (75%>B≥50%)

Question: What about the ROCK2 inhibition rate (ROCK2 protein [2]; evaluation concentration 10 μm) of the same molecule?
Answer: A (A Z 75%)

Question: With `COC[C@H]1CN[C@H](C)CN1CC(=O)N1CC(C)(C)c2nc(CN(C)CCOCCOCCNC(=O)CN3CCC(c4cc(OC(C)C)c(Nc5ncc(Cl)c(Nc6ccccc6S(=O)(=O)C(C)C)n5)cc4C)CC3)c(Cc3ccc(F)cc3)cc21` as the molecule, how does the “ALK kinase inhibition rate” value (human ALK kinase) read?
Answer: A (A Z 75%)

Question: How did the “ROCK2 protein degradation rate” value (ROCK2 protein [1]; at 1 μm) turn out when `COC[C@H]1CN[C@H](C)CN1CC(=O)N1CC(C)(C)c2nc(CN(C)CCOCCOCCOCCN[C@H](C)c3ccc(C(=O)Nc4ccncc4)cc3)c(Cc3ccc(F)cc3)cc21` was run?
Answer: A (A≥75%)

Question: What about the “ROCK2 protein degradation rate” value (ROCK2 protein [1]; at 10 μm) of the same molecule?
Answer: B (75%>B≥50%)

Question: And the ROCK2 inhibition rate (ROCK2 protein [2]; evaluation concentration 10 μm)?
Answer: A (A Z 75%)

Question: Which “ROCK2 protein degradation rate” value (ROCK2 protein [1]; at 1 μm) does the source give for `COC[C@H]1CN[C@H](C)CN1CC(=O)N1CC(C)(C)c2nc(CN(C)CCOCCOCCOCCN[C@H](Cc3cccc(F)c3)C(=O)Nc3ccc(-c4ccncc4)cc3)c(Cc3ccc(F)cc3)cc21` here?
Answer: B/B (75%>B≥50%)

Question: And the “ROCK2 protein degradation rate” value (ROCK2 protein [1]; at 10 μm)?
Answer: B/B (75%>B≥50%)

Question: And the ROCK2 inhibition rate (ROCK2 protein [2]; evaluation concentration 1 μm)?
Answer: C (50%>C≥25%)

Question: `COC[C@H]1CN[C@H](C)CN1CC(=O)N1CC(C)(C)c2ncc(Cc3cccc(OCCOCCOCCOCCOCCOCCNC(=O)CN4CCC(c5cc(OC(C)C)c(Nc6ncc(Cl)c(Nc7ccccc7S(=O)(=O)C(C)C)n6)cc5C)CC4)c3)cc21` was tested. Which “ALK kinase inhibition rate” value (human ALK kinase) did it give?
Answer: A (A Z 75%)

Question: How did the “FAK kinase inhibition rate” value (human FAK kinase) turn out when `C[C@@H]1CN(CC(=O)N2CC(C)(C)c3ncc(Cc4ccc(F)cc4)cc32)[C@@H](CN(C)CCOCCOCCOCC(=O)Nc2ccc(Nc3ncc(C(F)(F)F)c(NCc4cccc(S(C)(=O)=O)c4)n3)cc2)CN1` was run?
Answer: A (A≥75%)

Question: With `Cc1cc(Nc2ncc(Cl)c(Nc3ccccc3S(=O)(=O)C(C)C)n2)c(OC(C)C)cc1C1CCN(CC(=O)NCCOCCOCCOCCOCCOCCN(C)C[C@H]2CN[C@H](C)CN2CC(=O)N2CC(C)(C)c3ncc(Cc4ccc(F)cc4)cc32)CC1` as the molecule, how does the “ALK kinase inhibition rate” value (human ALK kinase) read?
Answer: B (75%>B≥50%)

Question: How did the “ROCK2 protein degradation rate” value (ROCK2 protein [1]; at 1 μm) turn out when `C[C@@H]1CN(CC(=O)N2CC(C)(C)c3ncc(Cc4ccc(F)cc4)cc32)[C@@H](CN(C)CCOCCOCCNC[C@@H](C(=O)Nc2ccc3cnccc3c2)c2ccccc2)CN1` was run?
Answer: C (50%>C≥25%)

Question: And the “ROCK2 protein degradation rate” value (ROCK2 protein [1]; at 10 μm)?
Answer: A (A≥75%)

Question: What about the ROCK2 inhibition rate (ROCK2 protein [2]; [3]) of the same molecule?
Answer: B (75%>B≥50%)

Question: What does the source list for `COC[C@H]1CN[C@H](C)CN1CC(=O)N1CC(C)(C)c2ncc(Cc3ccccc3OCCOCCOCCOCCNC[C@@H](C(=O)Nc3ccc4cnccc4c3)c3ccccc3)cc21`?
Answer: ROCK2 protein degradation rate (ROCK2 protein [1]; at 1 μm): B (75%>B≥50%); ROCK2 protein degradation rate (ROCK2 protein [1]; at 10 μm): A (A≥75%); ROCK2 inhibition rate (ROCK2 protein [2]; [3]): C (50%>C≥25%)

Question: How did the “ALK kinase inhibition rate” value (human ALK kinase) turn out when `COC[C@H]1CN[C@H](C)CN1CC(=O)N1CC(C)(C)c2nc(CN(C)CCOCCOCCOCCOCCOCCNC(=O)CN3CCC(c4cc(OC(C)C)c(Nc5ncc(Cl)c(Nc6ccccc6S(=O)(=O)C(C)C)n5)cc4C)CC3)c(Cc3ccc(F)cc3)cc21` was run?
Answer: A (A Z 75%)

Question: `COC[C@H]1CN[C@H](C)CN1CC(=O)N1CC(C)(C)c2ncc(Cc3ccccc3OCCN3CCN(CCOCCOCCOCC(=O)Nc4ccc(Nc5ncc(C(F)(F)F)c(NCc6cccc(S(C)(=O)=O)c6)n5)cc4)CC3)cc21` was tested. Which “FAK kinase inhibition rate” value (human FAK kinase) did it give?
Answer: B (75%>B≥50%)
